Values of other authors as cited in article PMC4322620 (Frontiers in Pharmacology, 2015).

Tested on: formalin-induced pain
Details: ref Roussy et al., 2008; cited from earlier work

## CC[C@H](C)[C@H](NC(=O)[C@H](Cc1ccc(O)cc1)NC(=O)[C@@H]1CCCN1C(=O)[C@H](CCCNC(=N)N)NC(=O)[C@H](CCCNC(=N)N)NC(=O)[C@@H]1CCCN1C(=O)[C@H](CCCCN)NC(=O)[C@H](CC(N)=O)NC(=O)[C@H](CCC(=O)O)NC(=O)[C@H](Cc1ccc(O)cc1)NC(=O)[C@H](CC(C)C)NC(=O)[C@@H]1CCC(=O)N1)C(=O)N[C@@H](CC(C)C)C(=O)O
  ED50 in rat formalin assay: 0.11 nmol
